These results are taken from patent publication US8877759B2, “Aminopyrazines as ATR kinase inhibitors” (Vertex Pharnaceuticals Incorporated, priority 2011, dated 2014).

Protein sequences, listed by entry. Tags and fused reporters are not part of them.
UniProt Q13535, whole entry: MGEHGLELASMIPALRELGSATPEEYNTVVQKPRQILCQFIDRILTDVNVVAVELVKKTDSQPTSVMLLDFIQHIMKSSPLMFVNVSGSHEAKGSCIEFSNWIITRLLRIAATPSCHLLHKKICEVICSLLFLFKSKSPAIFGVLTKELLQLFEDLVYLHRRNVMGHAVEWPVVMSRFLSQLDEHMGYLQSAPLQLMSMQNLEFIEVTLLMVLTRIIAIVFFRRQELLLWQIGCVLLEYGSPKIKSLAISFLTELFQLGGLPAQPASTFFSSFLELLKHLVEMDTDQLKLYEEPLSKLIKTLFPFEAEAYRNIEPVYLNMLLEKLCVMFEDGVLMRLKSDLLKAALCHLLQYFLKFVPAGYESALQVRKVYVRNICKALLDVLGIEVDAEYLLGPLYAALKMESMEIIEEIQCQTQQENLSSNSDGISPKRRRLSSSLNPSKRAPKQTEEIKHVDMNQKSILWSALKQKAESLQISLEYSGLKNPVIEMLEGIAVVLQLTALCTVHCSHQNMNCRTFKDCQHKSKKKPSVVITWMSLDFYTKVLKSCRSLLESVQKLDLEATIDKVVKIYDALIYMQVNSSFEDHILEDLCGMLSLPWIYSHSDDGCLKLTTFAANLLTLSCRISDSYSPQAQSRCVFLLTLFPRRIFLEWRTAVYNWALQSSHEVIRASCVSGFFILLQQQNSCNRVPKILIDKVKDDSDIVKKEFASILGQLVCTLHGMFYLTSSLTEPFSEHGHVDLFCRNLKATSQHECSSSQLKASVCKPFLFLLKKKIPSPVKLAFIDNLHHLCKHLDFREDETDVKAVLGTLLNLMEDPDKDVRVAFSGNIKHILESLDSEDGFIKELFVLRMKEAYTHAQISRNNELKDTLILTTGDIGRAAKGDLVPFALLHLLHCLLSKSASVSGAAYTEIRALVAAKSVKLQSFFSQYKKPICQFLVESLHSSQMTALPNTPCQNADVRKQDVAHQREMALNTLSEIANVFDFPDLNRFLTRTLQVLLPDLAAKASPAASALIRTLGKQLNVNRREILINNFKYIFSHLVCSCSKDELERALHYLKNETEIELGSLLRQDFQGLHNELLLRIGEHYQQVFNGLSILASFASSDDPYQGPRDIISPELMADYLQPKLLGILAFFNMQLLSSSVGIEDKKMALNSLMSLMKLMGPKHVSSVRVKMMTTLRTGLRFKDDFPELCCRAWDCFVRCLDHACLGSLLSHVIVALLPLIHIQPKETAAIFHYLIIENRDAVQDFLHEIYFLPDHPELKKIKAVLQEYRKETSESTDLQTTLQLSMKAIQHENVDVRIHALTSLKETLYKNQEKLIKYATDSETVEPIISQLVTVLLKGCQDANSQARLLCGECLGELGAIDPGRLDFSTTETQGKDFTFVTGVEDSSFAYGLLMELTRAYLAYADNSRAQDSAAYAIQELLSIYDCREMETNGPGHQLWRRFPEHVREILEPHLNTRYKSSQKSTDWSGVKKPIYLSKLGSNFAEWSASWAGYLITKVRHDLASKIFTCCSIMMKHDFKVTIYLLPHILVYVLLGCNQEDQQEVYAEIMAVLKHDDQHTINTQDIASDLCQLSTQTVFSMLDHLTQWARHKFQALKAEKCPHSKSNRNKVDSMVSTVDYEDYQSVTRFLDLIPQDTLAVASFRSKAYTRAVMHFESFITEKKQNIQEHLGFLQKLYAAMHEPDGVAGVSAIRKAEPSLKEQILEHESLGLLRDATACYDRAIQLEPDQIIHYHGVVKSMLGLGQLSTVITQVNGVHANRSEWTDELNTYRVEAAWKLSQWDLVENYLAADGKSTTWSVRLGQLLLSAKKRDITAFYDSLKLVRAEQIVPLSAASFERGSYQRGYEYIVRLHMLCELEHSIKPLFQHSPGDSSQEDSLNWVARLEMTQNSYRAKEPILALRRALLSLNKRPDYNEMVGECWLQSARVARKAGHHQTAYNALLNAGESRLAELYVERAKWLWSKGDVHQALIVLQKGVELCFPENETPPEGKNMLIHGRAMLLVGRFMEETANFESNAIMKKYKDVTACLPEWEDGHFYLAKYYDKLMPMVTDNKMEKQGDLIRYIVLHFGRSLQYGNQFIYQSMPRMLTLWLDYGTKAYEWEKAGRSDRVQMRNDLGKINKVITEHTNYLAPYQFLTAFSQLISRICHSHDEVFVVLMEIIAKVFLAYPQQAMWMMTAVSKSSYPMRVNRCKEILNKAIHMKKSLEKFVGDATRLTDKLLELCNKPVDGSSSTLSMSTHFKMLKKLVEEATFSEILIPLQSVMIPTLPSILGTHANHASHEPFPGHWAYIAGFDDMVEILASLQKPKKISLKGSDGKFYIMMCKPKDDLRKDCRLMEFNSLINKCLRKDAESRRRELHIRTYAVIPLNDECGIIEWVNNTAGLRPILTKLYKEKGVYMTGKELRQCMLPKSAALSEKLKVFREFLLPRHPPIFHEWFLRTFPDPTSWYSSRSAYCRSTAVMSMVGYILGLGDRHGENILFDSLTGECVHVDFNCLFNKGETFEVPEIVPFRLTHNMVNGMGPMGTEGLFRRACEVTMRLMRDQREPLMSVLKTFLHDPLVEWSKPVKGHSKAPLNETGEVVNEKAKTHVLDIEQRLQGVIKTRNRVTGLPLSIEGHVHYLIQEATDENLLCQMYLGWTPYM

The assay deals with full-length ATR (Homo sapiens, UniProt Q13535). Description: ATR Inhibition Assay (radioactive-phosphate incorporation). To be noted: read-out: ATR Ki; Ki(app); 5 nM full-length ATR, 10 μM [γ-33P]ATP, 800 μM target peptide, 25° C.

pKi: −log10 of the molar value.

Usually pKi stands for the Ki on a negative log10 scale, so that one unit is a factor of ten.

`CN(Cc1ccc(-c2cc(-c3nc(-c4ccnc(C(C)(C)C#N)c4)cnc3N)on2)cc1)C1(C)COC1`: the pKi was > 9.00.
The figure for `CC(C)(C#N)c1cc(-c2cnc(N)c(-c3nnc(-c4ccc(N5CCC(N)C5)cc4)o3)n2)ccn1` (centres unmarked) is > 9.00.
